In general, Km refers to the concentration of substrate that gives half-maximal velocity.

Data on one substance can be found in PMC9600172, “N-Succinyltransferase Encoded by a Cryptic Siderophore Biosynthesis Gene Cluster in Streptomyces Modifies Structurally Distinct Antibiotics” (mBio, 2022).

In this series the test system is CC1(C)S[C@@H]2[C@H](NC(=O)[C@H](N)c3ccccc3)C(=O)N2[C@H]1C(=O)O. The series can be described thus: purified protein. Particulars: 25 mM succinyl-CoA, 50 mM Tris-HCl, 30 °C, 2 mg/mL CsbC, ampicillin 0-8.1 mM, pH 8 in general assay.

Consider CsbC (Streptomyces sp. YIM 121038), for which the Km turned out to be 470 µM.
